The record followed here is ChEMBL document CHEMBL6083289, “Deciphering the Therapeutic Potential of Novel Pentyloxyamide-Based Class I, IIb HDAC Inhibitors against Therapy-Resistant Leukemia” (J Med Chem, 2024).

This assay has as its target T1, Histone deacetylase 8 (Homo sapiens, UniProt Q9BY41).
T1 sequence (Q9BY41 whole entry): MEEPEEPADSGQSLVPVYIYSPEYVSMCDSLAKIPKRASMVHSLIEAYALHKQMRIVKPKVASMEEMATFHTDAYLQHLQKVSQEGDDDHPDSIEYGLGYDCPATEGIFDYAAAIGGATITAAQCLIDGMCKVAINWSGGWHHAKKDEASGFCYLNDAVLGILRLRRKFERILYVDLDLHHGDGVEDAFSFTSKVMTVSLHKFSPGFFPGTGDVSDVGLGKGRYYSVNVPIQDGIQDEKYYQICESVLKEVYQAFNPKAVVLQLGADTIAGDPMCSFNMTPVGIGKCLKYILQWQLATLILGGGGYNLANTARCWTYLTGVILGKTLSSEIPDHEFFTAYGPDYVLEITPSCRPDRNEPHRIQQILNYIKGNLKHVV

As usually defined, the IC50 is the concentration at which inhibition is half-maximal. Higher therefore signals lower potency. For the compound `O=C(CCCCCCC(=O)Nc1ccccc1)NO` [VORINOSTAT], the IC50 is 5.85 µM.
